# Measured values as given in patent publication US20070059799A1 (priority 1999, published 2007).
# Entries after “also recorded” stand apart in the source; their conditions may differ.
# Key:
# [1] = system: common HLA-DR alleles; experiment: HLA-DR cross-reactive binding, sequential screening panels of DR assays; parameters: species or system human; details: primary through tertiary DR panels
# [2] = system: A*0201/Kb transgenic mice; details: mouse, in vivo
# [3] = target: A*6802 (Homo sapiens, UniProt P04439, A269V/D140Y/D185E/E176V/E277Q/E87N/F33Y/G231S/I121R/I166T/I218V/L180W/L300P/L318F/N151K/P208A/P217A/Q86R/R138H/R169H/S129P/T345S/V36M); experiment: Purified HLA class I peptide binding assay
# [4] = target: B51; experiment: Purified HLA class I peptide binding assay (B*51); parameters: species or system human; details: for B*5101 (binding information): HBV B07 supermotif peptides, Table XI, unit not given
# [5] = system: B7-supertype alleles; experiment: B7-supertype cross-reactive binding (B*0702, B*3501, B*51, B*5301, B*5401); parameters: species or system human; details: for Alleles bound: number of B7-supertype alleles bound, 3 or more = degenerate
# [6] = system: HLA-A11 transgenic mice; experiment: Transgenic CTL: CTL induction in HLA-A11 transgenic mice; type: in vivo; details: responders/tested
# [7] = target: A*0101 (Homo sapiens, UniProt P04439, A114D/A174V/A182V/D101N/D185E/E176A/E190D/L180R/Q94H/R68K/S129P/T187R/V100A/V91M/W191G)
# [8] = target: HLA-A*0201 (Homo sapiens, UniProt P04439, D140Y/D185E/D98H/E176V/E277Q/G131W/G231S/I119V/I121R/I166T/I218V/L300P/L318F/N151K/N90K/P208A/P217A/Q86G/Q94H/R138H/R169H/T345S)
compound,measurement,setting,value
CC[C@H](C)[C@H](NC(=O)[C@H](Cc1c[nH]c2ccccc12)NC(=O)[C@@H](NC(=O)CN)C(C)C)C(=O)N[C@@H](CCCNC(=N)N)C(=O)N[C@H](C(=O)N1CCC[C@H]1C(=O)N1CCC[C@H]1C(=O)N[C@@H](C)C(=O)N[C@@H](Cc1ccc(O)cc1)C(=O)N[C@@H](CCCNC(=N)N)C(=O)N1CCC[C@H]1C(=O)N1CCC[C@H]1C(=O)N[C@@H](CC(N)=O)C(=O)N[C@@H](C)C(=O)O)[C@@H](C)O [27.0280],Total DR alleles bound,[1],8
CC(C)C[C@H](NC(=O)[C@@H](N)CC(C)C)C(=O)N[C@H](C(=O)N1CCC[C@H]1C(=O)N[C@@H](Cc1ccccc1)C(=O)N[C@H](C(=O)N[C@@H](CCC(N)=O)C(=O)N[C@@H](Cc1c[nH]c2ccccc12)C(=O)N[C@@H](Cc1ccccc1)C(=O)N[C@H](C(=O)O)C(C)C)C(C)C)C(C)C [1069.06],CTL induction / immunogenicity in HLA-A*0201 transgenic mice (in words),[2],induced CTL responses; also recorded: immunogenic
same,binding affinity for A*6802 (in words),[3],high binding affinity
CC(C)C[C@H](NC(=O)[C@H](C)NC(=O)[C@H](CO)NC(=O)[C@@H]1CCCN1C(=O)[C@@H](N)C(C)C)C(=O)N[C@@H](CC(N)=O)C(=O)N1CCC[C@H]1C(=O)N[C@@H](C)C(=O)O [Peptide 19.0016],IC50,[4],786 nM
CSCC[C@H](NC(=O)[C@H](C)NC(=O)[C@H](C)NC(=O)[C@@H]1CCCN1C(=O)[C@@H](N)Cc1c[nH]cn1)C(=O)N1CCC[C@H]1C(=O)N[C@@H](Cc1c[nH]cn1)C(=O)N[C@@H](CC(C)C)C(=O)N[C@@H](CC(C)C)C(=O)N[C@H](C(=O)O)C(C)C [Peptide 20.0273],Alleles bound,[5],1
CC[C@H](C)[C@H](NC(=O)[C@@H]1CCCN1C(=O)[C@@H](N)CC(C)C)C(=O)N[C@@H](Cc1c[nH]cn1)C(=O)N[C@H](C(=O)N[C@@H](C)C(=O)N[C@@H](CCC(=O)O)C(=O)N[C@@H](CC(C)C)C(=O)N[C@@H](CC(C)C)C(=O)N[C@@H](C)C(=O)N[C@@H](C)C(=O)O)[C@@H](C)O [Peptide 26.0359],Alleles bound,[5],1
CC(C)C[C@H](NC(=O)[C@H](CC(C)C)NC(=O)[C@H](Cc1ccccc1)NC(=O)[C@@H]1CCCN1C(=O)[C@@H](N)CO)C(=O)N[C@@H](C)C(=O)N[C@@H](CCC(N)=O)C(=O)N[C@@H](Cc1ccccc1)C(=O)N[C@H](C(=O)N[C@@H](CO)C(=O)N[C@@H](C)C(=O)O)[C@@H](C)O [Peptide 26.0566],Alleles bound,[5],2
CC[C@H](C)[C@H](NC(=O)CNC(=O)[C@H](C)NC(=O)[C@H](CCCCN)NC(=O)[C@H](Cc1c[nH]c2ccccc12)NC(=O)[C@H](CC(C)C)NC(=O)[C@@H](NC(=O)[C@H](Cc1c[nH]cn1)NC(=O)[C@H](CC(C)C)NC(=O)[C@H](Cc1ccc(O)cc1)NC(=O)[C@H](Cc1c[nH]cn1)NC(=O)[C@@H](N)CCCNC(=N)N)[C@@H](C)O)C(=O)N[C@@H](CC(C)C)C(=O)N[C@@H](Cc1ccc(O)cc1)C(=O)N[C@@H](CCCCN)C(=O)O [Peptide 27.0281],Total DR alleles bound,[1],8
CC(C)C[C@H](NC(=O)CNC(=O)[C@@H](NC(=O)[C@H](Cc1ccccc1)NC(=O)[C@H](Cc1c[nH]c2ccccc12)NC(=O)[C@H](CCC(N)=O)NC(=O)[C@@H](NC(=O)[C@H](Cc1ccccc1)NC(=O)[C@@H]1CCCN1C(=O)[C@@H](NC(=O)[C@@H](N)CC(C)C)C(C)C)C(C)C)C(C)C)C(=O)N[C@@H](CO)C(=O)N1CCC[C@H]1C(=O)N[C@H](C(=O)N[C@H](C(=O)O)C(C)C)[C@@H](C)O [Peptide 1186.15],Total DR alleles bound,[1],7
CC[C@H](C)[C@H](NC(=O)[C@H](CCCNC(=N)N)NC(=O)[C@@H](NC(=O)[C@H](CC(C)C)NC(=O)[C@H](CC(C)C)NC(=O)[C@H](Cc1ccccc1)NC(=O)[C@H](Cc1ccccc1)NC(=O)CNC(=O)[C@H](C)N)[C@@H](C)O)C(=O)N[C@@H](CC(C)C)C(=O)N[C@H](C(=O)N[C@H](C(=O)N1CCC[C@H]1C(=O)N[C@@H](CCC(N)=O)C(=O)N[C@@H](CO)C(=O)O)[C@@H](C)CC)[C@@H](C)O [Peptide 1280.06],Total DR alleles bound,[1],9
CC(C)C[C@H](NC(=O)[C@H](C)NC(=O)[C@H](CO)NC(=O)[C@@H]1CCCN1C(=O)[C@@H](NC(=O)[C@H](Cc1ccc(O)cc1)NC(=O)[C@@H](NC(=O)[C@H](Cc1ccccc1)NC(=O)[C@H](CO)NC(=O)[C@@H](NC(=O)CN)[C@@H](C)O)C(C)C)C(C)C)C(=O)N[C@@H](CC(N)=O)C(=O)N1CCC[C@H]1C(=O)N[C@@H](C)C(=O)N[C@@H](CC(=O)O)C(=O)O [Peptide 1280.09],Total DR alleles bound,[1],9
CC[C@H](C)[C@H](NC(=O)[C@H](CCCCN)NC(=O)[C@H](CCCNC(=N)N)NC(=O)[C@H](Cc1ccccc1)NC(=O)CNC(=O)[C@H](CC(C)C)NC(=O)[C@@H](NC(=O)[C@@H](NC(=O)[C@@H]1CCCN1C(=O)[C@H](Cc1c[nH]cn1)NC(=O)[C@H](CO)NC(=O)[C@H](Cc1ccc(O)cc1)NC(=O)[C@H](CC(C)C)NC(=O)[C@H](Cc1c[nH]cn1)NC(=O)[C@@H](N)CC(C)C)[C@@H](C)CC)[C@@H](C)CC)C(=O)O [Peptide 1280.15],Total DR alleles bound,[1],7
CC(C)C[C@H](NC(=O)[C@H](Cc1ccccc1)NC(=O)[C@H](C)NC(=O)[C@H](CCCCN)NC(=O)[C@H](Cc1ccc(O)cc1)NC(=O)[C@@H](NC(=O)[C@@H]1CCCN1C(=O)[C@H](CO)NC(=O)[C@H](Cc1ccccc1)NC(=O)[C@@H](NC(=O)[C@H](Cc1ccccc1)NC(=O)[C@H](C)NC(=O)[C@H](CCC(N)=O)NC(=O)[C@@H](N)CCCCN)[C@@H](C)O)[C@@H](C)O)C(=O)N[C@@H](CS)C(=O)O [Peptide 1293.06],Total DR alleles bound,[1],10
CC[C@H](C)[C@H](NC(=O)[C@@H]1CCCN1C(=O)[C@H](CCCNC(=N)N)NC(=O)[C@H](CC(N)=O)NC(=O)[C@@H](NC(=O)[C@@H]1CCCN1C(=O)[C@H](CC(C)C)NC(=O)[C@H](CCCCN)NC(=O)[C@H](CCCNC(=N)N)NC(=O)[C@H](Cc1ccccc1)NC(=O)[C@H](CS)NC(=O)[C@H](CCC(N)=O)NC(=O)[C@@H](N)CCCCN)C(C)C)C(=O)N[C@@H](CC(=O)O)C(=O)N[C@@H](Cc1c[nH]c2ccccc12)C(=O)O [Peptide 1298.04],Total DR alleles bound,[1],7
CC[C@H](C)[C@H](NC(=O)[C@H](Cc1c[nH]c2ccccc12)NC(=O)[C@H](CC(N)=O)NC(=O)[C@H](C)NC(=O)[C@H](C)N)C(=O)N[C@@H](CC(C)C)C(=O)N[C@@H](CCCNC(=N)N)C(=O)NCC(=O)N[C@H](C(=O)N[C@@H](CO)C(=O)N[C@@H](Cc1ccccc1)C(=O)N[C@H](C(=O)N[C@@H](Cc1ccc(O)cc1)C(=O)N[C@H](C(=O)N1CCC[C@H]1C(=O)O)C(C)C)C(C)C)[C@@H](C)O [Peptide 1298.07],Total DR alleles bound,[1],7
CC[C@H](C)[C@H](NC(=O)[C@H](C)NC(=O)[C@H](CO)NC(=O)[C@@H](NC(=O)[C@H](Cc1ccccc1)NC(=O)[C@H](CCC(N)=O)NC(=O)[C@H](C)NC(=O)[C@H](CC(C)C)NC(=O)[C@H](CC(C)C)NC(=O)[C@H](Cc1ccccc1)NC(=O)[C@@H]1CCCN1)[C@@H](C)O)C(=O)N[C@@H](CS)C(=O)N[C@@H](CO)C(=O)N[C@H](C(=O)N[C@H](C(=O)O)C(C)C)C(C)C [Peptide F107.04],Total DR alleles bound,[1],7
CC[C@H](C)[C@H](NC(=O)[C@H](CS)NC(=O)[C@H](C)NC(=O)[C@H](Cc1ccc(O)cc1)NC(=O)[C@H](CC(C)C)NC(=O)[C@@H]1CCCN1C(=O)[C@H](CCSC)NC(=O)[C@H](CC(C)C)NC(=O)[C@H](C)NC(=O)[C@@H]1CCCN1C(=O)[C@@H](N)Cc1ccc(O)cc1)C(=O)O [peptide 26.0570],Alleles bound,[5],3
CC(C)C[C@H](NC(=O)CNC(=O)[C@@H](NC(=O)[C@H](Cc1ccccc1)NC(=O)[C@H](CC(N)=O)NC(=O)CNC(=O)[C@@H](NC(=O)[C@@H](N)CCCCN)C(C)C)[C@@H](C)O)C(=O)N[C@@H](Cc1ccc(O)cc1)C(=O)O [peptide 1142.05],Immunogenicity transgenic,[6]; A3 supermotif peptides,0/3
same,Immunogenicity transgenic,[6]; non-crossreactive A3-supermotif peptides,0/3
same,binding to HLA-A1 (in words),[7],capable of binding HLA-A1
"HBV env 313: B7-like HBV peptide, parent of I9 and F1 analogs (IPIPSSWAF)",number of the 5 B7-supertype alleles bound,"[5]; B*0702, B*3501, B*51, B*5301, B*5401",4
MMWYWGPSL,A*0201 (binding information),[8],0.6400
NPLGFFPDQL,B*5101 (binding information),[4],0.0001
SPEHCSPHTTA,B*5101 (binding information),[4],0.0001
